Values quoted from earlier work, collected in article PMC8063737, “Mechanistic analysis of actin-binding compounds that affect the kinetics of cardiac myosin–actin interaction” (The Journal of Biological Chemistry, 2021).

Assays:
Conditions in all cases: cited from earlier work
[1] = target: masseter myosin β-S1 S1 (Bos taurus) (UniProt Q9BE39)
[2] = target: cardiac myosin β-S1 S1 (Bos taurus) (UniProt Q9BE39)
[3] = target: cardiac myosin S1 S1 (Homo sapiens) (UniProt P12883)

actin (from UniProt P68135)
Kd [1]: 7 nM
Kd [2]: 6.3 nM
Kd [3]: 10 nM and 8 nM

“And” between values parts separate entries of the source, which are not always exact repeats. Equal entries are not always repeated.
